Data as given in US11331368B2, “Angiotensin receptor agonists and uses thereof” (Monash University, priority 2017, dated 2022).

Legend:
[1] = molecular target: T1, human AT2R (Homo sapiens, UniProt P50052); test: Competition radioligand binding (125I-Sar1-Ile8-AngII) in AT2R-transfected HEK-293 cells; conditions: read-out: Binding AT2R IC50
T1 construct: expressed in transfected cells
T1 sequence (P50052 1-363): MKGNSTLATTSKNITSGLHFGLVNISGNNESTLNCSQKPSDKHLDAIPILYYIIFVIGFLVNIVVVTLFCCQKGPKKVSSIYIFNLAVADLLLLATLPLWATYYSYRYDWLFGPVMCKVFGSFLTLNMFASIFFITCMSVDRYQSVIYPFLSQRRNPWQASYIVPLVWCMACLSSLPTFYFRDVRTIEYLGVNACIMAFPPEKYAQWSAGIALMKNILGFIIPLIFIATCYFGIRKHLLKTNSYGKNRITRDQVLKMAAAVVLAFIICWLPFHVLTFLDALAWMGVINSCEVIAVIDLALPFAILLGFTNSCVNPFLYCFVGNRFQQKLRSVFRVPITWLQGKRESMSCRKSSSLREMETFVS

[2] = molecular target: T2, human AT1R (Homo sapiens, UniProt P30556); test: Competition radioligand binding (125I-Sar1-Ile8-AngII) in AT1R-transfected HEK-293 cells; conditions: read-out: Binding AT1R IC50
T2 construct: expressed in transfected cells

[3] = In vitro plasma stability assay (rat plasma); type: in vitro ADME; conditions: for Plasma stability (t1/2): plasma from male spontaneously hypertensive rats (SHR)
Procedure: Proteolytic stability may be tested in a plasma stability assay used to assess the susceptibility of a peptide described herein to plasma proteases. Plasma stability may be tested using methods described herein. For example, a sample of rat plasma may be incubated with peptide of interest (final concentration was 1 mg/mL; plasma diluted by 10% with peptide dissolved in saline). Protease activity is then quenched in samples by the addition of acetonitrile, at selected time intervals. The amount of parent compound remaining at each time point can then be assayed on an Agilent 1100 MSD SL ion trap mass spectrometer. The peaks observed in the resulting chromatograms are integrated, compared to a standard curve, and cross-checked by mass and retention time (Jones et al 2011 Hypertension. 57: 570-576).
B) Proteolytic stability was tested in a plasma stability assay used to assess the susceptibility of Ang II peptides to plasma proteases. A sample of rat plasma was incubated with peptide of interest (final concentration was 1 mg/mL; plasma diluted by 10% with peptide dissolved in saline). Protease activity was quenched in samples by the addition of acetonitrile, at selected time intervals. The amount of parent compound remaining at each time point was then assayed on an Agilent 1100 MSD SL ion trap mass spectrometer. The peaks observed in the resulting chromatograms were integrated, compared to a standard curve, and cross-checked by mass and retention time (Jones et al 2011 Hypertension. 57: 570-576).

For “D-Arg-Val-Tyr-Ile-His-β-Pro-Phe [D-Arg β-Pro-Ang III]”, the IC50 [1] was 0.324 nM, the IC50 [2] was over 100000 nM and the “peptide remaining in plasma” value ([3]; after 24 hour incubation, SHR/rat plasma, listed as D-Arg^2-β-Pro^7-Ang III, 1440 min) was “Approximately 80%”. The “Plasma stability (t1/2)” value [3] was 24 h.
With “D-Arg-Val-Tyr-Ile-His-β-Pro-Trp [D-Arg-βPro-Trp-8-Ang III]” the IC50 [1] was 2.82 nM, the IC50 [2] was over 50000 nM and the “Plasma stability (t1/2)” value [3] was 30.83 h.
“Asp-Arg-Val-Tyr-Ile-His-β-Pro-Ala [βPro-Ala-8-Ang II]” showed an IC50 [2] of over 10000 nM.
“Tetrazole-CONH-Arg-Val-Tyr-Ile-His-β-Pro-Trp [Tet-βPro-Trp-8-Ang III]” showed an IC50 [1] of 0.18 nM and an IC50 [2] of over 50000 nM.
With “Arg-Val-Tyr-Ile-His-β-Pro-Ala [βPro-Ala-8-Ang III]” the IC50 [1] was 49.1 nM and the IC50 [2] was over 10000 nM.
In the case of “Arg-Val-Tyr-Ile-His-β-Pro-Trp [βPro-Trβ-8-Ang III]”, the IC50 [1] is reported as 0.236 nM, the IC50 [2] is reported as over 100000 nM and the “Plasma stability (t1/2)” value [3] is reported as 2.78 h.
“Nicotinamido-Arg-Val-Tyr-Ile-His-β-Pro-Trp [Nic-βPro-Trp-8-Ang III]” gave an IC50 [1] of 0.19 nM and an IC50 [2] of 2940 nM.
With “Arg-Val-Tyr-Ile-His-β-Pro-Phe [βPro-Ang III]” the IC50 [2] was over 10000 nM, the “time within which peptide was degraded in plasma” value ([3]; SHR plasma) was at most 2 h and the “Plasma stability (t1/2)” value [3] was 0.767 h.
With “Tetrazole-CONH- Arg-Val-Tyr-Ile-His- β-Pro-Phe [Tet-βPro-Ang III]” the IC50 [1] was 0.78 nM and the IC50 [2] was over 50000 nM.
Work on Val-Tyr-Ile-His-β-Pro-Phe [βPro-Ang IV] yielded an IC50 [2] of over 10000 nM.
Substance “Asp-Arg-Val-Tyr-Ile-His-β-Pro-Phe [βPro-Ang II]” has an IC50 [2] of 1000 nM.
